From PubChem BioAssay (NCI)
This is a selection; strong and weak results do not stand in their true shares.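 The endpoint reported here, percent growth, reads 100 for growth as untreated, 0 for no net growth and -100 for all cells dead.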 Activity calls are given as the source filed them. The calls were made as follows: active = growth percent below 10; inactive = the rest.

Tests used:
Assay in all cases: NCI-60 one-dose screen, 48 h (100 = growth as untreated, 0 = no growth, -100 = all killed)
Details in all cases: 10 µM unless noted
MOLT-4 leukemia = test system: MOLT-4 leukemia
SR leukemia = test system: SR leukemia
RPMI-8226 leukemia = test system: RPMI-8226 leukemia
OVCAR-8 ovarian = test system: OVCAR-8 ovarian
OVCAR-5 ovarian = test system: OVCAR-5 ovarian
OVCAR-4 ovarian = test system: OVCAR-4 ovarian
SK-OV-3 ovarian = test system: SK-OV-3 ovarian
IGROV1 ovarian = test system: IGROV1 ovarian
OVCAR-3 ovarian = test system: OVCAR-3 ovarian
HS 578T breast = test system: HS 578T breast
NCI/ADR-RES ovarian = test system: NCI/ADR-RES ovarian
T-47D breast = test system: T-47D breast
BT-549 breast = test system: BT-549 breast
MDA-MB-435 melanoma = test system: MDA-MB-435 melanoma
SW-620 colon = test system: SW-620 colon
MCF7 breast = test system: MCF7 breast
HCT-116 colon = test system: HCT-116 colon
HCC-2998 colon = test system: HCC-2998 colon
KM12 colon = test system: KM12 colon

Measured: growth

ClC(Cl)(Cl)C1SCCS1
inactive: MOLT-4 leukemia 92.8% | SR leukemia 102% | RPMI-8226 leukemia 96% | OVCAR-8 ovarian 98% | OVCAR-5 ovarian 114% | OVCAR-4 ovarian 107% | SK-OV-3 ovarian 131% | IGROV1 ovarian 102% | OVCAR-3 ovarian 118% | HS 578T breast 109% | NCI/ADR-RES ovarian 105% | T-47D breast 97.6% | BT-549 breast 105% | MDA-MB-435 melanoma 102% | SW-620 colon 102% | MCF7 breast 100% | HCT-116 colon 107% | HCC-2998 colon 110% | KM12 colon 120%

CCN(CCCl)Cc1ccccc1
inactive: MOLT-4 leukemia 88.7% | SR leukemia 94.4% | RPMI-8226 leukemia 94.9% | OVCAR-8 ovarian 105% | OVCAR-5 ovarian 105% | OVCAR-4 ovarian 101% | SK-OV-3 ovarian 102% | IGROV1 ovarian 104% | OVCAR-3 ovarian 115% | HS 578T breast 115% | NCI/ADR-RES ovarian 114% | T-47D breast 95.9% | MDA-MB-435 melanoma 108% | SW-620 colon 104% | MCF7 breast 90.3% | HCT-116 colon 102% | HCC-2998 colon 112% | KM12 colon 104%

CCCOP(=S)(Nc1nc(N)cc(=O)[nH]1)OCCC
inactive: MOLT-4 leukemia 94.6% | SR leukemia 80.9% | RPMI-8226 leukemia 93.4% | OVCAR-8 ovarian 101% | OVCAR-5 ovarian 93.8% | OVCAR-4 ovarian 94.4% | SK-OV-3 ovarian 97.9% | IGROV1 ovarian 70% | OVCAR-3 ovarian 103% | HS 578T breast 89.4% | NCI/ADR-RES ovarian 101% | T-47D breast 86.3% | MDA-MB-435 melanoma 99.3% | SW-620 colon 104% | MCF7 breast 102% | HCT-116 colon 100% | HCC-2998 colon 101% | KM12 colon 95.4%

CCN(CCCl)C1c2ccccc2-c2ccccc21
inactive: MOLT-4 leukemia 93.8% | SR leukemia 91.3% | RPMI-8226 leukemia 85.4% | OVCAR-8 ovarian 99.3% | OVCAR-5 ovarian 98.7% | OVCAR-4 ovarian 90.1% | SK-OV-3 ovarian 98.8% | IGROV1 ovarian 97.5% | OVCAR-3 ovarian 102% | HS 578T breast 99.5% | NCI/ADR-RES ovarian 97.9% | T-47D breast 85.8% | MDA-MB-435 melanoma 97.6% | SW-620 colon 96.1% | MCF7 breast 89.7% | HCT-116 colon 99.7% | HCC-2998 colon 102% | KM12 colon 100%

O=C(O)Cc1ccc(N(CCCl)CCCl)cc1
inactive: MOLT-4 leukemia 91.2% | SR leukemia 64.3% | RPMI-8226 leukemia 95.5% | OVCAR-8 ovarian 95.1% | OVCAR-5 ovarian 108% | OVCAR-4 ovarian 104% | SK-OV-3 ovarian 97.2% | IGROV1 ovarian 83.2% | OVCAR-3 ovarian 94.1% | NCI/ADR-RES ovarian 101% | T-47D breast 105% | BT-549 breast 105% | MDA-MB-435 melanoma 103% | SW-620 colon 93.4% | MCF7 breast 93.7% | HCT-116 colon 112% | HCC-2998 colon 95.4% | KM12 colon 105%

O=C(N(CCCl)CCCl)C(Cl)(Cl)Cl
inactive: MOLT-4 leukemia 91.5% | SR leukemia 96.1% | RPMI-8226 leukemia 103% | OVCAR-8 ovarian 102% | OVCAR-5 ovarian 105% | OVCAR-4 ovarian 91.6% | SK-OV-3 ovarian 114% | IGROV1 ovarian 108% | OVCAR-3 ovarian 117% | NCI/ADR-RES ovarian 107% | T-47D breast 98.2% | BT-549 breast 105% | MDA-MB-435 melanoma 101% | SW-620 colon 98.6% | MCF7 breast 92.8% | HCT-116 colon 100% | HCC-2998 colon 108% | KM12 colon 118%

CCOC(=O)N1CCN(CCCl)CC1
inactive: MOLT-4 leukemia 114% | SR leukemia 111% | RPMI-8226 leukemia 107% | OVCAR-8 ovarian 107% | OVCAR-5 ovarian 103% | OVCAR-4 ovarian 96.5% | SK-OV-3 ovarian 98.3% | IGROV1 ovarian 105% | OVCAR-3 ovarian 104% | HS 578T breast 98.8% | NCI/ADR-RES ovarian 103% | T-47D breast 84.6% | MDA-MB-435 melanoma 103% | SW-620 colon 111% | MCF7 breast 90.9% | HCT-116 colon 103% | HCC-2998 colon 106% | KM12 colon 101%

O=P(Nc1ncccn1)(N1CC1)N1CC1
inactive: MOLT-4 leukemia 107% | SR leukemia 103% | RPMI-8226 leukemia 116% | OVCAR-8 ovarian 94.5% | OVCAR-5 ovarian 102% | OVCAR-4 ovarian 107% | SK-OV-3 ovarian 115% | IGROV1 ovarian 116% | OVCAR-3 ovarian 121% | HS 578T breast 99.6% | NCI/ADR-RES ovarian 95.8% | T-47D breast 101% | MDA-MB-435 melanoma 91.9% | SW-620 colon 99.7% | MCF7 breast 95.5% | HCT-116 colon 97.3% | HCC-2998 colon 99.9% | KM12 colon 110%
